From US20100113484A1, “TREATING AGENT OF UROPATHY” (ASKA PHARMACEUTICAL CO., LTD., priority 2006, published 2010) come the findings set out here.

Sequences of proteins named here, by UniProt entry; tags and fusion partners are left off. A change or cut given only in a name is not applied to a line headed by its entry.
UniProt O76083: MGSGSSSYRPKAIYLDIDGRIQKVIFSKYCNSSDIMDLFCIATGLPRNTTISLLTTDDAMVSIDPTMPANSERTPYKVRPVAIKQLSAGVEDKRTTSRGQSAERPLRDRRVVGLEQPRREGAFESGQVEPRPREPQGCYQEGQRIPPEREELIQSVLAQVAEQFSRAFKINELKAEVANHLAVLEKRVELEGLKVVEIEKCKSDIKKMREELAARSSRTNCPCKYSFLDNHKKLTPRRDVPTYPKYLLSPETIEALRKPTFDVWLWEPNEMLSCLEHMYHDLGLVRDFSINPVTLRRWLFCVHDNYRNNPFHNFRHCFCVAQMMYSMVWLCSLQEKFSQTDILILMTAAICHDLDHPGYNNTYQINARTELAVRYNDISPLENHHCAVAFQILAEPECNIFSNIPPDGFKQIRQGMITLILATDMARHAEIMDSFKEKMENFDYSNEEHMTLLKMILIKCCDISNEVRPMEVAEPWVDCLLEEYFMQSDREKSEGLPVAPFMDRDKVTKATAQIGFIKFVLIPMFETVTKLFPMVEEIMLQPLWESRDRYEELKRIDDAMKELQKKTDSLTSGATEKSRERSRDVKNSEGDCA

Experiment [1] concerns the target T1, human recombinant PDE9 protein (Homo sapiens, UniProt O76083).
T1 construct: made in house; host or cells: COS-1 cells, transient transfection with pcDNA 3.1 (+); supernatant of the homogenate, not purified
Put plainly: Measurement of PDE9-inhibiting activity ([3H]-cGMP hydrolysis). The experiment is classed as biochemical. Here is the method: Based on the base sequence of hsPDE9A1 registered with GenBank database (accession No.: AF048837), hsPDE9A1 fragment was amplified by polymerase chain reaction under the following conditions, using the following sequence (Amasham Pharmacia Biotech) as the primer and Human Prostate MATCHMAKER cDNA library (CLONTECH) as the template DNA, with Pfu Turbo DNA polymerase (STRATAGENE):
PCR condition: [95° C., 5 min]×1 cycle, [(95° C., 1 min), (58° C., 2 min), (72° C., 3 min)]×25 cycles, [72° C., 10 min]×1 cycle
Thus obtained hsPDE9A1 fragment was given a restricted enzymatic treatment with NheI and NotI, and thereafter inserted into pcDNA 3.1 (+) expression vector (Invitrogen) to let it serve as a human PDE9 expression vector.
Human PDE9 expression vector-transformed Escherichia coli was mass incubated to produce a large amount of human PDE9 expression vector, which was transiently transfected into COS-1 cells, with LIPOFECTAMINE 2000 Reagent (GIBCO). […]
. […] Thereafter [^3H]-guanosine was eluted with 3 mL of 3 mol/L aqueous ammonia and its radiation activity was measured with liquid scintillation counter.
PDE9 inhibition of the tested compound can be calculated by the following formula: […]
From the percent inhibition at various concentration levels of each tested compound, its IC50 value against PDE9 can be determined.

Experiment [2] concerns the target T2, human recombinant PDE5 protein (Homo sapiens, UniProt O76074).
T2 construct: made in house; host or cells: COS-1 cells, transient transfection with pcDNA 3.1 (+); supernatant of the homogenate, not purified
Put plainly: Measurement of PDE5-inhibiting activity. The experiment is classed as biochemical. Here is the method: Based on the base sequence of hsPDE5A1 registered with GenBank database (accession No.: NM-001083), hsPDE5A1 fragment was amplified by polymerase chain reaction (PCR) under the following conditions, using the following sequence (SIGMA GENOSYS) as the primer and Human Prostate MATCHMAKER cDNA library (CLONTECH) as the template DNA, with KDD plus DNA polymerase (TOYOBO):
PCR condition: [94° C., 2 min]×1 cycle, [(94° C., 30 sec), (65° C., 30 sec), (68° C., 3 min)]×25 cycles, [68° C., 6 min]×1 cycle
Thus obtained hsPDE5A1 fragment was given a restricted enzymatic treatment with XBaI and EcoRI, and thereafter inserted into pcDNA 3.1 (+) expression vector (Invitrogen) to let it serve as a human PDE5 expression vector.
Human PDE5 expression vector-transformed Escherichia coli was mass incubated to produce a large amount of human PDE5 expression vector, which was transiently transfected into COS-1 cells, with LIPOFECTAMINE 2000 Reagent (GIBCO). The cells were homogenized in ice-cooled buffer A and centrifuged at 4° C., 14,000×g for 10 minutes. The supernatant was isolated to provide human recombinant PDE5 protein solution.
By a method similar to the measurement of PDE9-inhibiting activity, PDE5-inhibiting activity of each of the test compounds was measured, percent inhibition was calculated and IC50 value against PDE5 was determined. […]

The subject of experiment [3] is partial urethra obstruction model in guinea pigs. Put plainly: Dysuria pathological model: partial urethra obstruction model, cystometry. The experiment is classed as in vivo, Hartley female guinea pigs. The settings on record: guinea pig, i.v. The protocol:
Three-four weeks old Hartley female guinea pigs (Japan SLC, Inc.) were given celiotomy under anesthesia with pentobarbital (30 mg/kg i.p.) and in their urethra to the peripheral side by 1-2 mm from the bladder neck, each a polyethylene tube of 1.4 mm in width and 2.0 mm in inner diameter was placed. After closing the wound, the guinea pigs were bred for at least 3 weeks to produce partial urethra obstruction model in guinea pigs in which occurrence of intravesical pressure rise not accompanied by micturition (uninhibited contraction) and residual urine were observed.
The model was catheterized under anesthesia with urethane (1 g/kg i.p.) at the apex of urinary bladder and right jugular vein for cystometrography and intravenous administration, respectively. The other end of the bladder catheter was connected to a pressure transducer and infusion pump via a three way stop-cock, and physiological saline was continuously infused into the bladder through the infusion pump at a rate of 0.4 mL/min to induce micturition reflex. Immediately after the micturition reflex was induced, infusion of physiological saline into the bladder was stopped. The intravesical pressure at the time the micturition reflex was induced was measured with the pressure transducer, and the obtained cystometrogram was recorded with pen recorder. The urine voided was collected with disposable type weighing dish and its weight was measured. Further the physiological saline remained in the bladder was sucked with syringe via the bladder catheter and the residual urine volume was measured. The operations of suspending the infusion of physiological saline upon induction of micturition reflex, and about 1 minute thereafter resuming the infusion of physiological saline to induce micturition reflex were repeated plural times (generally 4 times) to stabilize the micturition reflex. […]

On to `CC(C)c1n[nH]c2c(=O)[nH]c(Cc3cccc(Cl)c3)nc12` [C-11, reference compound], for which the IC50 (commonly the concentration needed to halve the response being measured) amounted to 8 nM in experiment [1] and 1340 nM in experiment [2]. Further, the “Frequency of occurrence of uninhibited contraction after administration” value is listed as 0.91 times/min in experiment [3] (0.1 mg/kg), 1.03 times/min in experiment [3] (1 mg/kg) and 1.09 times/min in experiment [3] (3 mg/kg).
